Measurements reported in patent publication EP0989983B1 (SCHERING CORPORATION, priority 1997, dated 1998).
“And” between values parts separate entries of the source, which are not always exact repeats. Identical values can stand only once.

The chains behind the UniProt entries cited, without tags or fusion partners.
UniProt P49356, whole entry: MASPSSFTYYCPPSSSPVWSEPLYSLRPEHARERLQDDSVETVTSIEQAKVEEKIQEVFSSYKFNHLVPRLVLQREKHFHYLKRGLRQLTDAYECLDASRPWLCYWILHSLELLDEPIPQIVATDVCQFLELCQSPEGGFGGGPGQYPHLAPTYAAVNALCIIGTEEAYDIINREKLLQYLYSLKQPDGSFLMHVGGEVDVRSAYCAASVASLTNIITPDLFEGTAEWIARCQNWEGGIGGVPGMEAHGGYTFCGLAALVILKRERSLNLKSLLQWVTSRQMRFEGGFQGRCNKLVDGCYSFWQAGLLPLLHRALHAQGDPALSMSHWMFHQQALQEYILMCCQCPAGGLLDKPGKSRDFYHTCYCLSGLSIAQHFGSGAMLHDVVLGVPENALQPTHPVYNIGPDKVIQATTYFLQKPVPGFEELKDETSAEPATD
UniProt P53610, whole entry: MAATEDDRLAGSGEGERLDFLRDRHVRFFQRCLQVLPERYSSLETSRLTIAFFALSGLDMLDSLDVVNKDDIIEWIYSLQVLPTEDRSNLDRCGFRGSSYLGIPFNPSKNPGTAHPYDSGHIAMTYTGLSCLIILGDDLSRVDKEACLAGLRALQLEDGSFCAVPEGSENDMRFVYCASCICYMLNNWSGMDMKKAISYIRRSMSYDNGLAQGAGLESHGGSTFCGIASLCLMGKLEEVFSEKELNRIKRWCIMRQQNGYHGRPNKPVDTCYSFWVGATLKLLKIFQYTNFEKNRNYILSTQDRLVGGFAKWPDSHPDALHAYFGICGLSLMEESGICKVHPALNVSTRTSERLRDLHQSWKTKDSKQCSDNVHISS

Assays:
[1] = biological target: farnesyl protein transferase (Homo sapiens, UniProt P49354+P49356); assay: FPT IC50, inhibition of farnesyl protein transferase, in vitro enzyme assay (procedure of WO 95/10516); conditions: read-out: FPT C50, several values in a cell are repeat determinations
Human tumor cells = assay: Soft Agar Assay (anchorage-independent growth, colony count after MTT staining); conditions: read-out: Soft Agar IC50; colony outgrowth 10-16 days at 37°C in 0.3% agarose
Procedure: Anchorage-independent growth is a characteristic of tumorigenic cell lines. Human tumor cells are suspended in growth medium containing 0.3% agarose and an indicated concentration of a farnesyl transferase inhibitor. The solution is overlayed onto growth medium solidified with 0.6% agarose containing the same concentration of farnesyl transferase inhibitor as the top layer. After the top layer is solidified, plates are incubated for 10-16 days at 37°C under 5% CO2 to allow colony outgrowth. After incubation, the colonies are stained by overlaying the agar with a solution of MTT (3-[4,5-dimethylthiazol-2-yl]-2,5-diphenyltetrazolium bromide, Thiazolyl blue) (1 mg/mL in PBS). Colonies can be counted and the IC50's can be determined.

[2] = biological target: geranylgeranyl protein transferase (Rattus norvegicus, UniProt P53610+Q04631); assay: GGPT IC50, inhibition of geranylgeranyl protein transferase, in vitro enzyme assay (procedure of WO 95/10516); conditions: read-out: GGPTase IC50
Procedure: FPT IC50 (inhibition of farnesyl protein transferase, in vitro enzyme assay). and COS Cell IC50 (Cell-Based Assay) were determined following the assay procedures described in WO 95/10516, published April 20, 1995. GGPT IC50 (inhibition of geranylgeranyl protein transferase, in vitro enzyme assay), Cell Mat Assay, and anti-tumor activity (in vivo anti-tumor studies) could be determined by the assay procedures described in WO 95/10516. The disclosure of WO 95/10516 is incorporated herein by reference thereto.

COS Cell = COS Cell IC50 (Cell-Based Assay, procedure of WO 95/10516); conditions: read-out: COS Cell IC50, several values in a cell are repeat determinations

IC50 [1]	IC50 (Human tumor cells)	IC50 [2]	Structure (SMILES)	IC50 (COS Cell)
29 nM	–	–	O=C(NCc1cccnc1)C1CN(C2c3ncc(Br)cc3CCc3cc(Cl)cc(Br)c32)CCN1 (centres unmarked)	–
19 nM and 16 nM	168 nM	31000 nM	CCCCC(=O)N1CCN(C2c3ccc(Cl)cc3CCc3cc(Br)cnc32)CC1C(=O)Nc1cccnc1 (centres unmarked)	–
12 nM and 15 nM	18 nM	–	O=C(NCCCN1CCCC1=O)C1CN(C2c3ccc(Cl)cc3CCc3cc(Br)cnc32)CCN1C(=O)NC1CCCCC1 (centres unmarked)	19.6 nM
–	15.5 nM	–	CCCCC(=O)N1CCN(C2c3ncc(Br)cc3CCc3cc(Cl)cc(Br)c32)CC1C(=O)NCc1cccnc1 (single isomer, unassigned) [256]	5.3 nM
72 nM	–	–	CCCCC(=O)N1CCN(C2c3ncc(Br)cc3CCc3cc(Cl)cc(Br)c32)CC1C(=O)NCCCOCC (centres unmarked)	–
–	–	–	O=C(NCCCn1ccnc1)C1CN(C2c3ccc(Cl)cc3CCc3cc(Br)cnc32)CCN1C(=O)NC1CCCCC1 (centres unmarked)	4 nM
140 nM	–	–	CCCCC(=O)N1CCN(C2c3ncc(Br)cc3CCc3cc(Cl)cc(Br)c32)CC1C(=O)NCc1ccc2c(c1)OCO2 (centres unmarked)	–
> 100000 nM	–	–	O=C1CN(C2c3ccc(Cl)cc3CCc3cc(Br)cnc32)C[C@@H](C(=O)NCc2cccnc2)N1 (some centres unmarked)	–
–	–	–	O=C(NCc1cccnc1)C1CN(C2c3ccc(Cl)cc3CCc3cc(Br)cnc32)CCN1C(=O)NC1CCCC1 (centres unmarked)	28.5 nM
39 nM	–	–	CCCCC(=O)N1CCN(C2c3ncc(Br)cc3CCc3cc(Cl)cc(Br)c32)CC1C(=O)NCCC#N (centres unmarked)	–
34 nM	–	–	CS(=O)(=O)N1CCN(C2c3ncc(Br)cc3CCc3cc(Cl)cc(Br)c32)CC1C(=O)NCc1cccnc1 (single isomer, unassigned) [206]	–
47 nM	–	–	CCCCC(=O)N1CCN(C2c3ncc(Br)cc3CCc3cc(Cl)cc(Br)c32)CC1C(=O)NCc1cccc(OC)c1 (centres unmarked)	–
23 nM and 12 nM and 15 nM	–	–	O=C(NCc1cccnc1)C1CN(C2c3ccc(Cl)cc3CCc3cc(Br)cnc32)CCN1C(=O)C1CCCC1 (centres unmarked)	49 nM and 94 nM
12 nM	–	–	CS(=O)(=O)N1CCN(C2c3ncc(Br)cc3CCc3cc(Cl)cc(Br)c32)CC1C(=O)NCCCN1CCCC1=O (centres unmarked)	–
77 nM	–	–	CS(=O)(=O)N1CCN(C2c3ncc(Br)cc3CCc3cc(Cl)cc(Br)c32)CC1C(=O)NCc1ccc[n+]([O-])c1 (centres unmarked)	–
17 nM	–	–	CCCCC(=O)N1CCN(C2c3ncc(Br)cc3CCc3cc(Cl)cc(Br)c32)CC1C(=O)NCCOC (centres unmarked)	–
2.9 nM	–	–	CS(=O)(=O)N1CCN(C2c3ncc(Br)cc3CCc3cc(Cl)cc(Br)c32)CC1C(=O)NCc1cccnc1 (single isomer, unassigned) [202]	–
870 nM and 1100 nM	–	–	CCC(CC)C(=O)N1CCN(C2c3ccc(Cl)cc3CCc3cc(Br)cnc32)CC1C(=O)NCc1cccnc1 (centres unmarked)	–
211 nM and 156 nM	–	–	CN(Cc1cccnc1)C(=O)C1CN(C2c3ccc(Cl)cc3CCc3cc(Br)cnc32)CCN1C(=O)CCC1CCCCC1 (centres unmarked)	–
250 nM and 183 nM	–	–	CCCCCCC(=O)N1CCN(C2c3ccc(Cl)cc3CCc3cc(Br)cnc32)CC1C(=O)NCc1cccnc1 (centres unmarked)	–
50 nM	–	–	CCCCC(=O)N1CCN(C2c3ncc(Br)cc3CCc3cc(Cl)cc(Br)c32)CC1C(=O)NCCCOC (centres unmarked)	–

IC50 [1]	IC50 (Human tumor cells)	IC50 [2]	Structure (SMILES)	IC50 (COS Cell)
5.5 nM	–	–	CCCCC(=O)N1CCN(C2c3ncc(Br)cc3CCc3cc(Cl)cc(Br)c32)CC1C(=O)NCCCN1CCCC1=O (centres unmarked)	–
180 nM	–	–	CCCCC(=O)N1CCN(C2c3ncc(Br)cc3CCc3cc(Cl)cc(Br)c32)CC1C(=O)NCCCC(OCC)OCC (centres unmarked)	–
10 nM and 14 nM	–	–	O=C(NCc1cccnc1)C1CN(C2c3ccc(Cl)cc3CCc3cc(Br)cnc32)CCN1C(=O)C1CCCCCC1 (centres unmarked)	94 nM
12 nM	–	–	CCCCC(=O)N1CCN(C2c3ncc(Br)cc3CCc3cc(Cl)cc(Br)c32)CC1C(=O)NCc1cncnc1 (centres unmarked)	–
4.5 nM and 5.2 nM	74.5 nM	–	O=C(NCc1cccnc1)[C@H]1CN(C2c3ccc(Cl)cc3CCc3cc(Br)cnc32)CCN1C(=O)NCC1CCCCC1 (some centres unmarked)	15.4 nM and 25 nM
3.6 nM	–	–	O=C(NCCc1c[nH]cn1)C1CN(C2c3ccc(Cl)cc3CCc3cc(Br)cnc32)CCN1C(=O)NC1CCCCC1 (centres unmarked) [Compound 227]	–
55 nM	–	–	CCCCC(=O)N1CCN(C2c3ncc(Br)cc3CCc3cc(Cl)cc(Br)c32)CC1C(=O)NCCN1CCOCC1 (centres unmarked)	–
415 nM and 290 nM	–	–	CCCC(=O)N1CCN(C2c3ccc(Cl)cc3CCc3cc(Br)cnc32)CC1C(=O)NCc1cccnc1 (centres unmarked)	–
93 nM and 101 nM	> 1000 nM	–	CCCCC(=O)N1CCN(C2c3ccc(Cl)cc3CCc3cc(Br)cnc32)CC1NC(=O)Cc1cccnc1 (centres unmarked)	1100 nM
35 nM and 21 nM	> 1000 nM	> 50000 nM	O=C(NCc1cccnc1)C1CN(C2c3ccc(Cl)cc3CCc3cc(Br)cnc32)CCN1C(=O)CCc1ccccc1 (centres unmarked)	150 to 200 nM
27.3 nM	307 nM	–	Cn1cnc(CCNC(=O)C2CN(C3c4ccc(Cl)cc4CCc4cc(Br)cnc43)CCN2C(=O)NC2CCCCC2)c1 (centres unmarked)	108 nM
–	38 nM	–	O=C(NCc1cccnc1)C1CN(C2c3ccc(Cl)cc3CCc3cc(Br)cnc32)CCN1C(=O)NC1CCCCC1 (centres unmarked)	–
16 nM	–	–	CCCCC(=O)N1CCN(C2c3ncc(Br)cc3CCc3cc(Cl)cc(Br)c32)CC1C(=O)NCCN1CCCC1=O (centres unmarked)	–
–	213 nM	–	CCCS(=O)(=O)N1CCN(C2c3ccc(Cl)cc3CCc3cc(Br)cnc32)CC1C(=O)NCc1cccnc1 (centres unmarked)	250 to 500 nM
62 nM	–	–	CCCCC(=O)N1CCN(C2c3ncc(Br)cc3CCc3cc(Cl)cc(Br)c32)CC1C(=O)NCc1ccco1 (centres unmarked)	–
–	100 to 500 nM and 100 nM	–	O=C(NCc1cccnc1)C1CN(C2c3ccc(Cl)cc3CCc3cc(Br)cnc32)CCN1C(=O)CCC1CCCCC1 (centres unmarked)	–
33 nM and 20 nM	–	–	CCCCC(=O)N1CCN(C2c3ccc(Cl)cc3CCc3cc(Br)cnc32)CC1C(=O)NCc1cccnc1 (centres unmarked)	–
17 nM	–	–	COCCOCC(=O)N1CCN(C2c3ncc(Br)cc3CCc3cc(Cl)cc(Br)c32)CC1C(=O)NCCCN1CCCC1=O (centres unmarked)	–
11.5 nM and 9.5 nM and 9 nM	83.5 nM	–	O=C(NCc1cccnc1)C1CN(C2c3ccc(Cl)cc3CCc3cc(Br)cnc32)CCN1C(=O)NCC1CCCCC1 (single isomer, unassigned) [241]	53.5 nM
1000 nM and 910 nM	–	> 500000 nM	O=C(CC1CN(C2c3ccc(Cl)cc3CCc3cc(Br)cnc32)CCN1C(=O)CCc1ccccc1)NCc1cccnc1 (centres unmarked)	2000 nM
3.3 nM	–	–	CCCCC(=O)N1CCN(C2c3ccc(Cl)cc3CCc3cc(Br)cnc32)C[C@@H]1C(=O)NCc1cccnc1 (single isomer, unassigned) [203]	–

IC50 [1]	IC50 (Human tumor cells)	IC50 [2]	Structure (SMILES)	IC50 (COS Cell)
10 nM	–	–	CCCCC(=O)N1CCN(C2c3ncc(Br)cc3CCc3cc(Cl)cc(Br)c32)CC1C(=O)NCCCn1ccnc1 (centres unmarked)	–
> 130 nM	–	–	CCCCC(=O)N1CCN(C2c3ncc(Br)cc3CCc3cc(Cl)cc(Br)c32)CC1C(=O)NCCCNC(=O)OC(C)(C)C (centres unmarked)	–
4.2 nM and 5 nM	57 nM	–	CCCCC(=O)N1CCN(C2c3ccc(Cl)cc3CCc3cc(Br)cnc32)C[C@@H]1C(=O)NCc1cccnc1 (single isomer, unassigned) [233]	37 nM
5.5 nM	–	–	COCCOCC(=O)N1CCN(C2c3ncc(Br)cc3CCc3cc(Cl)cc(Br)c32)CC1C(=O)NCc1cccnc1 (centres unmarked)	–
31 nM	–	–	CCCCC(=O)N1CCN(C2c3ncc(Br)cc3CCc3cc(Cl)cc(Br)c32)CC1C(=O)NCC1CCCO1 (centres unmarked)	–
9.4 nM and 8.7 nM	–	–	O=C(NCc1cccnc1)C1CN(C2c3ccc(Cl)cc3CCc3cc(Br)cnc32)CCN1C(=O)NC1CCCCCC1 (centres unmarked)	81 nM
7.8 nM and 6.8 nM	–	> 100000 nM	CC(C)CC(=O)N1CCN(C2c3ccc(Cl)cc3CCc3cc(Br)cnc32)CC1C(=O)NCc1cccnc1 (centres unmarked)	–
–	50 to 100 nM	–	COCCC(=O)N1CCN(C2c3ccc(Cl)cc3CCc3cc(Br)cnc32)CC1C(=O)NCc1cccnc1 (centres unmarked)	< 100 nM and 100 nM
12 nM and 14 nM	52.5 nM	–	CN(C)C(=O)CCC(=O)N1CCN(C2c3ccc(Cl)cc3CCc3cc(Br)cnc32)CC1C(=O)NCc1cccnc1 (centres unmarked)	9.5 nM and 12.5 nM
11 nM	–	–	O=C(NCCCN1CCCC1=O)C1CN(C2c3ncc(Br)cc3CCc3cc(Cl)cc(Br)c32)CCN1C(=O)Cc1cc[n+]([O-])cc1 (centres unmarked)	–
11.5 nM	140 nM	–	CCCCCN1C(=O)CN(C2c3ccc(Cl)cc3CCc3cc(Br)cnc32)C[C@@H]1C(=O)NCc1cccnc1 (some centres unmarked)	59.5 nM
314 nM and 186 nM	–	–	CCCCNC(=O)N1CCN(C2c3ccc(Cl)cc3CCc3cc(Br)cnc32)CC1C(=O)NCc1cccnc1 (centres unmarked)	–
26 nM and 28 nM	–	–	O=C(NCc1cccnc1)C1CN(C2c3ccc(Cl)cc3CCc3cc(Br)cnc32)CCN1C(=O)CCC1CCCC1 (centres unmarked)	–
13.5 nM and 9.5 nM	41 nM and 47 nM	–	CCCCC(=O)N1CCN(C2c3ccc(Cl)cc3CCc3cc(Br)cnc32)CC1C(=O)NCCc1c[nH]cn1 (centres unmarked)	–
3.2 nM	–	–	CCCCC(=O)N1CCN(C2c3ncc(Br)cc3CCc3cc(Cl)cc(Br)c32)CC1C(=O)NCc1cccnc1 (single isomer, unassigned) [201]	–
4.2 nM and 3 nM	10 to 50 nM and 11 nM	–	O=C(NCc1cccnc1)[C@H]1CN(C2c3ccc(Cl)cc3CCc3cc(Br)cnc32)CCN1C(=O)NC1CCCCC1 (some centres unmarked)	6.4 nM
1200 nM	–	–	CCCCCN1C(=O)CN(C2c3ccc(Cl)cc3CCc3cc(Br)cnc32)C[C@H]1C(=O)NCc1cccnc1 (some centres unmarked)	–
7.1 nM and 8.9 nM	64 nM	–	CC(C)CNC(=O)N1CCN(C2c3ccc(Cl)cc3CCc3cc(Br)cnc32)CC1C(=O)NCc1cccnc1 (centres unmarked)	25 nM
–	1.5 nM	–	Cn1cncc1CCNC(=O)C1CN(C2c3ccc(Cl)cc3CCc3cc(Br)cnc32)CCN1C(=O)NC1CCCCC1 (centres unmarked)	0.4 nM
2200 nM	–	–	O=C1CN(C2c3ccc(Cl)cc3CCc3cc(Br)cnc32)C[C@H](C(=O)NCc2cccnc2)N1 (some centres unmarked)	–
